ChEMBL document CHEMBL1141302, “Anti-Helicobacter pylori and thrombin inhibitory components from Chinese dragon's blood, Dracaena cochinchinensis” (J Nat Prod, 2007)

Target: Prothrombin (Homo sapiens, UniProt P00734)
Assay: Inhibition of human thrombin
How it was run: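 Human thrombin incubated with compound and 20 µM fluorogenic Benzoyl-FVR-AMC in 50 mM Tris pH 8.0, 150 mM NaCl, 2.5 mM CaCl2, 2% DMSO. Cleavage followed as fluorescence change at 460 nm (excitation 355 nm) over 15 min at room temperature. IC50 derived from initial rates, fitted to replicate curves. Argatroban as positive control.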

IC50: 5.4 nM
SMILES: CC1CNc2c(cccc2S(=O)(=O)N[C@@H](CCCNC(=N)N)C(=O)N2CC[C@@H](C)C[C@@H]2C(=O)O)C1 (stereo partly specified) [ARGATROBAN]
